HCMV NEC inh: inhibitors of HCMV UL50-UL53 interaction, biochemical, HTRF; HCMV UL50-UL53 nuclear egress complex (human cytomegalovirus); normalized percent inhibition; inhibition, % (concentration not given with the values); 190,000 compounds, 0.15% hits; in the data active = inhibition above about 27%, passing the limit was not always enough
Sa growth 42C: S. aureus growth inhibition at 42 and 30 °C, primary screen, LtaS inhibitor project, RN4220, two temperatures; OD600, 20 h, 42 °C; active compounds read low; relative growth, % (test concentration not listed); 170,000 compounds, 0.53% hits; AID 720641, 2013;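 active = relative growth at most 50% at the other temperature and 20+ points below 30 °C, or under 10% at both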
GIV Gai3 FP: inhibitors of GIV GBA-motif binding to rat Galpha-i3; P08753; Galpha-i3/FITC-GIV peptide fluorescence polarization, 90 min; stronger effect = lower value; scaled: aluminum fluoride 0%, vehicle 100%; percent of control (FP), % (no concentration beside the values); actives 0.42% (n = 210,000); AID 1224905;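 active means replicate mean at 85% of control or lower, very high polarization wells dropped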;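 further: wells of about 15 µL received 100 nL stock; the first replicate is given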
Hits are given with their value; i = inactive; nt = no result; ! = a repeat was not active. Sampled rows, rich in hits. Any-hit rate of the full collection: about 0.7%.

SMILES	HCMV NEC inh	Sa growth 42C	GIV Gai3 FP
Cc1ccc(C(=O)O)cc1-n1c(C)ccc1-c1ccccc1	i	i	i
Cc1noc(C)c1CSc1nc2ccccc2c(=O)n1Cc1ccccc1Cl	i	i	nt
CN1c2cc(Cl)ccc2-c2nc(SCC(=O)NC3CCCCC3)ncc2S1(=O)=O	66.8	nt	i
CN1c2ccc(Cl)cc2-c2nc(SCC(=O)NC3CCCCC3)ncc2S1(=O)=O	i	nt	i
Cc1ccc2nc(CCc3cccc(NC(=O)c4cnccn4)c3)[nH]c2c1	i	nt	i
CC(C=C1C(=O)NC(=O)NC1=O)c1ccccc1 (stereo not drawn)	61.5	i	i
O=C1NC(=O)C(=Cc2ccc(-c3ccccc3)o2)C(=O)N1	nt	i	i
Nc1ccc2nc3c(=O)[nH]c(=O)[nH]c3nc2c1	nt	nt	17.5
O=c1[nH]c(=O)c2nc3c(ccc4nsnc43)nc2[nH]1	nt	nt	i
O=C(Nc1ccc(C(=O)NC2CCN(Cc3ccccc3)CC2)cc1)C1=CSCCO1	i	nt	i
FC(F)(F)c1ccc(-c2csnn2)cc1	i	i	i
Cc1ccc(NC2=CC(=O)c3sc(C)nc3C2=O)cc1	103.2!	nt	nt
Cc1ccc(Nc2nnc(C)c(=O)[nH]2)cc1	i	i	i
COC(=O)CSc1nn2c(=O)c(C)nnc2s1	nt	nt	i
CCOC(=O)c1sc(SC#N)c(-c2ccccc2)c1N	i	1.1	nt
CCOC(=O)c1sc(SC#N)c(C(=O)OCC)c1C	i	i	nt
O=C(NCCc1ccc(Cl)cc1)c1ccc(CS(=O)Cc2cccc(Cl)c2)o1 (stereo not drawn)	nt	7.4	i
O=C(NCCc1ccccc1)c1ccc(CS(=O)Cc2cccc(Cl)c2)o1 (stereo not drawn)	i	i	i
O=C1C=C(Nc2ccccc2)C(=O)c2ccccc21	i	i	i
O=C1C=C(c2ccccc2)C(=O)c2ccccc21	i	3.8	i
NC1=CC(=O)c2ccccc2C1=O	i	0.6	i
O=C1C=C(Cc2ccc(F)cc2)C(=O)c2ccccc21	i	0.2	i
O=C1C(=Cc2ccc(F)cc2)C(=O)c2ccccc21	i	i	i
CC1=CC(=O)c2ccccc2C1=O	i	i	nt
O=C(Nc1ccc(Br)cc1)NC(c1ccccc1)c1nnc(-c2ccccc2)o1 (stereo not drawn)	i	nt	i
SMILES	HCMV NEC inh	Sa growth 42C	GIV Gai3 FP
COc1ccccc1NC(=O)Cn1c(=O)n(-c2ccc(CC(=O)NC3CC3)cc2)c(=O)c2ccccc21	i	nt	i
CCN1C(=O)CCSc2ccccc21	i	i	i
CCN1/C(=C\C=C2C(=O)OC(C)(C)OC2=O)Sc2ccccc21	i	i	-33.6
CCN1/C(=C\C(=O)C2CC2)Sc2ccccc21	i	i	i
CCN1/C(=C/C2=CC(=O)CC(C)(C)C2)Sc2ccccc21	nt	1.0	-23.8
O=C1/C(=C/c2cc3ccccc3o2)CC/C1=C\c1cc2ccccc2o1	nt	i	-5.9
O=C1/C(=C\c2ccc(Br)o2)CC/C1=C/c1ccc(Br)o1	nt	i	i
Cc1ccc(C)c(N2CCN(C(=O)CC(C)CC3=NS(=O)(=O)c4ccccc4N3)CC2)c1 (stereo not drawn)	i	nt	i
CN(CCC#N)c1ccc(/C=C2\CC/C(=C\c3ccc(N(C)CCC#N)cc3)C2=O)cc1	i	i	-40.8
CCN(CC)c1ccc(/C=C2\CC/C(=C\C(C)C)C2=O)cc1	i	i	-87.6
CC(C)/C=C1\CC/C(=C\c2ccc(Cl)cc2)C1=O	nt	i	i
COc1ccc(N=Cc2ccc(N(C)CCC#N)cc2)cc1	i	i	i
Cc1cc(C)cc(NC(=O)Nc2ccccc2OCc2cc(=O)n3c(ncn3C(C)C)n2)c1	i	nt	i
Cn1c(=O)c(-c2noc(C(=O)N3CCCCC3)n2)nn(-c2ccccc2)c1=O	i	nt	i
CCNc1nc(C(N)=O)c(NC(=O)c2cc(-c3ccc(OC)cc3)nc3ccccc23)s1	nt	nt	i
CCOCCOC(=O)C1=C(C)NC2=C(C(=O)CC(c3cccs3)C2)C1c1cc(OC)c(OC)cc1OC (stereo not drawn)	nt	nt	i
N#C/C(=C(/O)COc1ccccc1)c1nc2ccccc2s1	i	i	nt
COc1cccc(OC)c1/C(O)=C(\C#N)c1nc2ccccc2s1	i	1.4	i
Cc1c(C(=O)O)oc2c1-c1[nH]ncc1CC2	61.0	i	i
Cc1cc(C)cc(NC(=O)c2oc3c(c2C)-c2[nH]ncc2CC3)c1	nt	i	i
Cc1cc(C(=O)CSc2ccc(S(=O)(=O)N3CCN(C)CC3)cn2)c(C)n1C1CC1	i	i	nt
CN1CCC(N(C)C2CCN(Cc3ccccc3)CC2)CC1	i	i	i
COc1cc2c(cc1OC)C(=O)C(CC1CCN(Cc3ccccc3)CC1)C2 (stereo not drawn)	i	45.7!	nt
Cc1cccc(-c2nnc(-c3nc(NC(C)c4ccccc4)c4ccccc4n3)o2)c1 (stereo not drawn)	nt	nt	i
CCc1nnc(NC(=O)c2nc(S(=O)(=O)Cc3cccc(C)c3)ncc2Cl)s1	i	i	i
SMILES	HCMV NEC inh	Sa growth 42C	GIV Gai3 FP
Cc1cccc(CS(=O)(=O)c2ncc(Cl)c(C(=O)Nc3nnc(C(C)C)s3)n2)c1	i	5.0	i
CCc1nnc(NC(=O)c2nc(S(=O)(=O)Cc3ccc(C)cc3)ncc2Cl)s1	i	i	i
Cc1ccc(CS(=O)(=O)c2ncc(Cl)c(C(=O)Nc3nnc(C(C)C)s3)n2)cc1	i	5.6	i
NCCc1c(C(=O)O)[nH]c2ccc(Br)cc12	i	i	nt
Cc1cc(C)nc(N2CCC(C(O)(c3ccccc3)c3ccccc3)CC2)n1	i	i	i
C1=C(c2ccccc2)Nc2ncnn2C1c1cccs1 (stereo not drawn)	nt	i	-24.0
CN(C)c1ccc(C2C=C(c3ccccc3)Nc3ncnn32)cc1 (stereo not drawn)	nt	i	i
C1=C(c2ccc3c(c2)OCO3)Nc2ncnn2C1c1cccs1 (stereo not drawn)	nt	nt	-22.3
C1=C(c2ccccc2)Nc2ncnn2C1c1ccc2c(c1)OCO2 (stereo not drawn)	i	i	i
COc1ccc(Br)cc1CNC(=O)CN1C(=O)CSc2ncccc21	i	nt	i
CC(C)N1CCC(NS(=O)(=O)c2c(F)cc(F)cc2Br)CC1	i	i	nt
N=C(N)SCc1cn(-c2ccccc2)nc1-c1ccc(Br)cc1	i	1.1	nt
NCc1cn(-c2ccccc2)nc1-c1ccccc1	i	i	nt
Cc1cc(NC(=O)c2ccccc2)nc2c1c(=O)oc1ccccc12	i	nt	nt
Cc1cc(NC(=O)c2ccc(N3C(=O)CCC3=O)cc2)nc2c1c(=O)oc1ccccc12	i	0.1	i
Clc1nnc(-c2ccccc2)c(-c2ccccc2)n1	i	-0.6	i
NNc1nnc(-c2ccccc2)c(-c2ccccc2)n1	i	i	i
CCCNC(=O)C(C)N1Cc2ccccc2C1=O (stereo not drawn)	i	i	i
O=C(CSc1ccc(Cl)cc1)c1ccc[nH]1	i	i	nt
COc1ccccc1C(=O)CSc1ccc(Cl)cc1	i	6.6	nt
O=C(CCC(=O)N1Cc2ccccc2Oc2ncccc21)NCCc1ccc(Cl)cc1	i	nt	i
Nc1cc(C(F)(F)F)c[nH]c1=O	i	i	nt
FC(F)(F)c1c[nH]c(=S)c(C(F)(F)F)c1	i	7.9	i
O=C1c2ccccc2-c2c(NCCc3ccccc3)c(=O)[nH]c3cccc1c23	nt	i	-73.2
Nc1c2c3c(c(Cl)ccc3[nH]c1=O)C(=O)c1ccccc1-2	nt	nt	i
